Reference: ChEMBL document CHEMBL3392967, “Phosphatidylinositol 3-Kinase (PI3K) and phosphatidylinositol 3-kinase-related kinase (PIKK) inhibitors: importance of the morpholine ring” (J Med Chem, 2015)

The chains behind the UniProt entries cited, without tags or fusion partners. Where a name states a change or a piece, a line headed by the entry shows the natural chain unless it says otherwise.
UniProt P42338: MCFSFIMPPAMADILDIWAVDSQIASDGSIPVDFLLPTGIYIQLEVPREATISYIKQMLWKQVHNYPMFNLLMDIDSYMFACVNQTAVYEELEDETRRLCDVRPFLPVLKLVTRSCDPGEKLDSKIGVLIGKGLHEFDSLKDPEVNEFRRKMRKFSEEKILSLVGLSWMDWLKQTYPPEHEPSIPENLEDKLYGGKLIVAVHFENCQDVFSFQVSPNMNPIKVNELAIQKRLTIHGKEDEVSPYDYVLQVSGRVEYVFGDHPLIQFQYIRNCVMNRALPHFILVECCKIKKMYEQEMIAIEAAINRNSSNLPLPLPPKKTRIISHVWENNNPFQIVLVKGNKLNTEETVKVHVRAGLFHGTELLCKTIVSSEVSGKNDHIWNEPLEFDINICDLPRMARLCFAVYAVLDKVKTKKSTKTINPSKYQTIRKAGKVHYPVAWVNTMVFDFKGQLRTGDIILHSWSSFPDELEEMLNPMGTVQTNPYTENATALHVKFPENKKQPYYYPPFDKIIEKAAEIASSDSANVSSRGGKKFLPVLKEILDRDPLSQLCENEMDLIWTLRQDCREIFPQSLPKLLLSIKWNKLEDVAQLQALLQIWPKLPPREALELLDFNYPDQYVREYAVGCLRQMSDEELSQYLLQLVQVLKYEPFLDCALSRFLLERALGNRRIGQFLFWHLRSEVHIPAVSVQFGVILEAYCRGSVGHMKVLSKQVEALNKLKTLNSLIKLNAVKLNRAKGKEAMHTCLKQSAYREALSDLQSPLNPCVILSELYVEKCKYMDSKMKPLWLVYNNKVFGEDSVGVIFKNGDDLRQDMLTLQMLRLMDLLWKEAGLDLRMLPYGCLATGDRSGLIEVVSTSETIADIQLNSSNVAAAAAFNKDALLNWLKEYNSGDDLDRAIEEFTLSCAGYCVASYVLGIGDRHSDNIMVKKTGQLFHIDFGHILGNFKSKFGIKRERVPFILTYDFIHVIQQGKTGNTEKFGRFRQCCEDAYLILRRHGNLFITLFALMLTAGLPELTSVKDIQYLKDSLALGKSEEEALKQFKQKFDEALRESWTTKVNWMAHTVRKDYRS

Target: Phosphatidylinositol 4,5-bisphosphate 3-kinase catalytic subunit beta isoform (Homo sapiens, UniProt P42338)

Compound | IC50 [µM]
O=c1cc(N2CCOCC2)oc2c(-c3ccccc3)cccc12 [LY-294002] | 16
Cc1cc(C(C)Nc2ccccc2)c2nc(N3CCOCC3)cc(=O)n2c1 (configuration not stated) | 2
